Data on one substance can be found in patent US7964630B2, “Topical application agents against mimic and age-related wrinkles” (DSM IP Assets B.V., priority 2004, dated 2011).

This experiment has as its system co-culture model of human muscle cells and neurons from the spinal marrow of rat embryos. Briefly: Efficacy test: frequency of muscle contractions in a nerve-muscle co-culture model. The settings on record: contractions counted for 30 seconds, compared to number before incubation, means of 3 measurements; for Variation Δ [in %] of the number of muscle contractions (1 min): 1 minute after incubation; for Variation Δ [in %] of the number of muscle contractions (2 h): 2 hours after incubation; for Variation Δ [in %] of the number of muscle contractions (48 h): 48 hours after incubation. Type of experiment: cell-based, human (myoblasts), rat (embryo spinal explants). The method, then:
Culture conditions: 37° C., 5% CO2 In order to test the efficacy of the compounds of the present invention, a co-culture model of human muscle cells on one hand and neurons from the spinal marrow of rat embryos on the other hand was established. Normal human muscle cells (myoblasts) were cultured in gelatine-coated 24-well plates until a monolayer of myofibrils (from fused muscle cells) had formed. Afterwards, an explant of the spinal marrow of a 13 day-old rat embryo with dorsal root ganglia was placed on the muscle cell monolayer. After one day of co-culture, the first axons were seen to grow out of the explant to come in contact with muscle cells. The first contractions appeared after 5 days. […] At this stage of development, the myofibrils performed regular contractions and the model was used for the tests.

In the case of H-β-Ala-Pro-Dab-NHBzl.2TFA, the “Variation Δ [in %] of the number of muscle contractions (1 min)” value (shortened to “Variation Δ [in %] of the number … (1 min)”) (0.1 mM) turned out to be 86%, the “Variation Δ [in %] of the number … (1 min)” value (0.5 mM) worked out at 96% and the “Variation Δ [in %] of the number … (1 min)” value (1.0 mM) came to 24%. For the same substance, the “Variation Δ [in %] of the number of muscle contractions (2 h)” value is listed as 4% (0.1 mM), 0% (0.5 mM) and 0% (1.0 mM). For the same substance, the “Variation Δ [in %] of the number of muscle contractions (48 h)” value reads like this: (0.1 mM) 4%; (0.5 mM) 0%; (1.0 mM) 0%.
